PMC7698965 (Cancers, 2020)

Test system: neonatal murine astrocytes co-cultured with U87 MG
Experiment: Confocal microscopy of treated co-cultures (GFAP)
Type: cell-based, mouse
Conditions: IC50,U87 MG doses, 24 h

CCN(CC)CCNC(=O)c1c(C)[nH]c(/C=C2\C(=O)Nc3ccc(F)cc32)c1C [Sun, sunitinib]
astrocyte activation (GFAP staining): astrocytes become reactive
